The text below walks through data of patent US7338948B2, “Use of quetiapine” (AstraZeneca AB, priority 2000, dated 2008).

The subject of data set [1] is Conduct Disorder, Childhood Onset, Moderate Severity and Attention Deficit Hyperactivity Disorder (ADHD), Combined Type. The data set can be described thus: Case report: patient with Conduct Disorder and ADHD treated with successive drugs. To be noted: lithium up to 1125 mg/day with olanzapine 20 mg daily.
Data set [2] can be described thus: Drug level printed in brackets after the dose in the case report. To be noted: lithium up to 1125 mg/day.

For `[Li]` [lithium], in data set [1], the “side effect other than weight gain” value was “mild intentional tremor” and the “side effect: weight gain (increase)” value is reported as 32 lb. In data set [2], this compound yielded a drug level of 1.7 ng/mL.
